This note sets out measurements from ChEMBL document CHEMBL1130107, “Discovery of CGS 27023A, a non-peptidic, potent, and orally active stromelysin inhibitor that blocks cartilage degradation in rabbits” (J Med Chem, 1997).

By UniProt entry, the sequences of proteins in these tests, tags left out. Where a name states a change or a piece, a line headed by the entry shows the natural chain unless it says otherwise.
UniProt P08254: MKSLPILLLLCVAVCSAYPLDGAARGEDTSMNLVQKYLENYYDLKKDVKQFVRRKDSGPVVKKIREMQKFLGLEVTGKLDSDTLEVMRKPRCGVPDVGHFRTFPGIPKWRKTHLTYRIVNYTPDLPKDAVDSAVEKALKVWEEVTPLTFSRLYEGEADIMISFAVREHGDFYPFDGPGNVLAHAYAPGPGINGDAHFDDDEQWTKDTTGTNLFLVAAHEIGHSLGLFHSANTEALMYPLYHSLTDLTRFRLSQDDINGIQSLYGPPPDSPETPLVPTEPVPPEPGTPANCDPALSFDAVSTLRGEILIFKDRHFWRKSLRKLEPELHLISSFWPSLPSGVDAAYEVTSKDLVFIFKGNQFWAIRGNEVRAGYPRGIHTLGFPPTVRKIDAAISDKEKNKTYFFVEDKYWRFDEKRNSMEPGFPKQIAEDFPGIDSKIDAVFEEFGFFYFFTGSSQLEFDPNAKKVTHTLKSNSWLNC

The assay addresses Stromelysin-1 (Homo sapiens, UniProt P08254). Briefly: Inhibition activity against recombinant human stromelysin (Matrix metalloprotease-3).

As for `CC(C)CN(CC(=O)NO)S(=O)(=O)c1ccc(C(F)(F)F)cc1`, the Ki came out at 5350 nM.

For `CC(C)CN(CC(=O)NO)S(=O)(=O)c1ccccc1`, the Ki was 1760 nM.

For the compound `Cc1ccc(S(=O)(=O)N(CC(=O)NO)CC(C)C)cc1`, the Ki was 3270 nM.

For the compound `COc1ccc(S(=O)(=O)N(CCCCc2ccccc2)CC(=O)NO)cc1`, the inhibition constant (Ki) is 100 nM.

For `COc1ccc(S(=O)(=O)N(CC(=O)NO)Cc2ccc(Cl)cc2)cc1`, the inhibitory constant (Ki) is 94 nM.

Consider `COc1ccc(S(=O)(=O)N(Cc2ccccc2)[C@H](COC(C)(C)C)C(=O)NO)cc1`, for which the Ki turned out to be 48 nM.

In the case of `COc1ccc(S(=O)(=O)N(Cc2ccccc2)[C@H](CCCCNC(=O)OCc2ccccc2)C(=O)NO)cc1`, the Ki was 70 nM.

In the case of `COc1ccc(S(=O)(=O)N(Cc2cccnc2)[C@H](CC(C)C)C(=O)NO)cc1`, the Ki stood at 46 nM.

On to `COc1ccc(S(=O)(=O)N(CC(=O)NO)Cc2cc(OC)c(OC)c(OC)c2)cc1`, for which the Ki was determined as 151 nM.

Regarding `COc1ccc(S(=O)(=O)N(CC(=O)NO)Cc2ccc(-c3ccccc3)cc2)cc1`, the Ki was 107 nM.

Take `COc1ccc(S(=O)(=O)N(CC(=O)NO)Cc2cccnc2)cc1`: the inhibitory constant (Ki) was found to be 113 nM.

In the case of `COc1ccc(S(=O)(=O)N(CC(=O)NO)Cc2ccccn2)cc1`, the inhibitory constant (Ki) was 90 nM.

In the case of `CC(C)CN(CC(=O)NO)S(=O)(=O)c1ccc(OC(C)C)cc1`, the Ki is 336 nM.

`COc1ccc(S(=O)(=O)N(CC(=O)NO)Cc2ccncc2)cc1`: the inhibition constant Ki is 192 nM.

On to `CC(C)CN(CC(=O)NO)S(=O)(=O)c1ccc(N)cc1`, for which the Ki was determined as 5000 nM.

In the case of `COc1ccc(S(=O)(=O)N(Cc2cccnc2)[C@H](CC(C)(C)C)C(=O)NO)cc1`, the Ki turned out to be 42 nM.

For `COc1ccc(S(=O)(=O)N(CC(=O)NO)C2CCCCC2)cc1`, the inhibition constant (Ki) worked out at 1260 nM.

`COc1ccc(S(=O)(=O)N(Cc2cccnc2)[C@H](CCCCN(C)C)C(=O)NO)cc1`: the Ki is 81 nM.

Take `COc1ccc(S(=O)(=O)N(Cc2ccccc2)[C@H](CCCCN(C)C)C(=O)NO)cc1`: the Ki is 69 nM.

For the compound `COc1ccc(S(=O)(=O)N(Cc2ccccc2)C(CCN2CCOCC2)C(=O)NO)cc1` (centres undefined), the Ki was determined as 50 nM.

Turning to `CCCCCCOc1ccc(S(=O)(=O)N(CC(=O)NO)CC(C)C)cc1`, the Ki amounted to 63 nM.

Turning to `CC(C)CN(CC(=O)NO)S(=O)(=O)c1ccc(Cl)cc1`, the inhibition constant Ki turned out to be 943 nM.

As to `COc1ccc(S(=O)(=O)N(Cc2ccccc2)[C@H](CC(C)(C)C)C(=O)NO)cc1`, the inhibition constant (Ki) worked out at 28 nM.

On to `CC(C)CCOc1ccc(S(=O)(=O)N(CC(=O)NO)CC(C)C)cc1`, for which the Ki stood at 78 nM.

With `COc1ccc(S(=O)(=O)N(CCc2ccccc2)CC(=O)NO)cc1`, the Ki worked out at 66 nM.

For `CC(C)CN(CC(=O)NO)S(=O)(=O)c1ccc(F)cc1`, the Ki came out at 3270 nM.

Regarding `COc1ccc(S(=O)(=O)N(Cc2ccccc2)C(Cc2ccc(O)cc2)C(=O)NO)cc1` (centres undefined), the inhibition constant Ki is 65 nM.

Regarding `COc1ccc(S(=O)(=O)N(Cc2ccccc2)[C@@H](C(=O)NO)c2ccccc2)cc1`, the Ki amounted to 104 nM.

With `COc1ccc(S(=O)(=O)N(Cc2ccccc2)[C@H](CCS(C)(=O)=O)C(=O)NO)cc1`, the Ki is 85 nM.

On to `CCOCCOc1ccc(S(=O)(=O)N(CC(=O)NO)CC(C)C)cc1`, for which the inhibitory constant (Ki) came out at 1130 nM.

`COc1ccc(S(=O)(=O)N(CCN2CCCCC2)CC(=O)NO)cc1`: the inhibition constant (Ki) worked out at 1130 nM.

On to `CCCCOc1ccc(S(=O)(=O)N(CC(=O)NO)CC(C)C)cc1`, for which the Ki was determined as 58 nM.

As for `COc1ccc(S(=O)(=O)N(Cc2ccccc2)[C@H](CCSC)C(=O)NO)cc1`, the Ki worked out at 31 nM.

For `COc1ccc(S(=O)(=O)N(CC(=O)NO)Cc2cccc(OC)c2)cc1`, the Ki is 70 nM.

As for `COc1ccc(S(=O)(=O)N(CC(=O)NO)CC(F)(F)F)cc1`, the Ki came to 305 nM.

As for `COc1ccc(S(=O)(=O)N(Cc2ccccc2)C(C(=O)NO)C(C)(C)C)cc1` (centres undefined), the inhibitory constant (Ki) was determined as 700 nM.

`CCC(C)N(CC(=O)NO)S(=O)(=O)c1ccc(OC)cc1` (centres undefined): the Ki was determined as 1820 nM.

On to `COc1ccc(S(=O)(=O)N(CCCc2ccccc2)CC(=O)NO)cc1`, for which the Ki was 125 nM.

For the compound `COc1ccc(S(=O)(=O)N(CCC2CCCCC2)CC(=O)NO)cc1`, the Ki came to 38 nM.

Turning to `COc1ccc(S(=O)(=O)N(CCN2CCOCC2)CC(=O)NO)cc1`, the Ki turned out to be 236 nM.

With `COc1ccc(S(=O)(=O)N(Cc2ccccc2)[C@H](CC2CCCCC2)C(=O)NO)cc1`, the inhibitory constant (Ki) was determined as 44 nM.

Take `COc1ccc(S(=O)(=O)N(CC(=O)NO)C(C)(C)C)cc1`: the Ki worked out at 2500 nM.

As for `CCC(C)[C@H](C(=O)NO)N(Cc1ccccc1)S(=O)(=O)c1ccc(OC)cc1` (some centres undefined), the inhibition constant (Ki) was found to be 39 nM.

For the compound `CC(C)CN(CC(=O)NO)S(=O)(=O)c1ccc(OCC2CCCCC2)cc1`, the Ki stood at 61 nM.

What is called Ki is the equilibrium dissociation constant of an inhibitor or competing ligand from its target.
